Data: PMC9536293, “Targeting extracellular matrix remodeling sensitizes glioblastoma to ionizing radiation” (Neuro-Oncology Advances, 2022)

Legend:
913-GSCs [1] = assay: Clonogenic (colony formation) assay with increasing radiation doses; settings: 0.15 μM, increasing IR doses
913-GSC and 821-GSCs = assay: Relative cell growth of GSCs; settings: 913- and 821-GSCs; 0.3uM; up to 4 days
913-GSCs [2] = assay: Invasion through a Matrigel/HA matrix (XCELLigence); settings: 0.30 µM
913-GSCs [3] = assay: Invasion through a 3D decellularized brain matrix (invadopodia length); settings: 3D brain matrix
[4] = system: 913-GSCs intracranial tumors; assay: Orthotopic 913-GSC brain tumor survival study in athymic nude mice; format: in vivo, mouse
Protocol: Animal studies were performed in accordance with University of Miami institutional guidelines. Eight-week-old female nude mice (Charles River) were injected intracranially with luciferase-expressing 913-GSC neurospheres with or without shGFP and shMT1-MMP stable expression, into the right cerebral cortex at a depth of 3 mm. Tumor growth was monitored twice weekly and quantified using bioluminescent imaging (BLI). Signal intensity was measured as photon counts within a Region Of Interest (ROI). One day post inoculation, mice were equally distributed into groups of treatment so that each group contained mice with similar tumor burden, measured by BLI. Mice that received (R)-ND336, were given the drug subcutaneously 5 days prior, on the day of, and 5 days post radiation at 25mg/kg daily. The treatment was then continued thrice weekly for an additional two months. The radiation groups received one single 12 Gy dose (equivalent to a BED—Biologically Effective Dose—between 26 and 40 based on a a/b value for gliomas ranging from 5 to 10[20]), using an XRad 320 cabinet irradiator to focally irradiate the right brain hemisphere with lead shielding to protect all other sites. Animal appearance, behavior, and weight were monitored to evaluate tumor progression as per a University of Miami approved IACUC protocol.
To test (R)-ND336 efficacy in vivo, 7 × 10^4 913-GSCs were inoculated stereotactically into the brains of athymic nude mice. Tumor growth was monitored twice weekly by bioluminescent imaging (BLI). One day post inoculation, the mice were equally distributed into four groups of treatments so that each group contained mice with similar tumor burden. Mice were treated daily with 25 mg/kg (R)-ND336 s.c. for 5 days prior to a single dose of 12 Gy of X-rays[20]; and for an additional 5 days after irradiation in the IR+ (R)-ND336 group, while the (R)-ND336 only group received the drug regimen. We chose this regimen to ensure MT1-MMP inhibition at the time of irradiation and afterwards, during DNA repair.

## NCc1ccc(Oc2ccc(S(=O)(=O)C[C@H]3CS3)cc2)cc1
913-GSCs [1]
  sensitization to radiation (clonogenic survival): capable of sensitizing 913-GSCs to several IR doses
913-GSC and 821-GSCs
  cell growth: reduced
913-GSCs [2]
  invasion through Matrigel/HA matrix: reduce invasion
913-GSCs [3]
  invasion through brain matrix: reduce invasion
[4]; IR 12 Gy + drug 25 mg/kg s.c. vs IR only (77 days)
  effect on median survival with radiation vs radiation alone: almost doubling the median survival
[4]; IR (single 12 Gy) + drug 25 mg/kg s.c., nude mice with 913-GSC brain tumors
  Median OS: 148 days
[4]; drug alone, 25 mg/kg s.c.
  effect on survival, drug alone: did not extend survival
